The values that follow come from patent US20030109523A1, “Bicyclic antagonists selective for the alphavbeta3 integrin” (Wyeth, priority 1999, published 2003).

Amino acid sequences for entries named in this document (tags omitted). Residues count along the entry.
UniProt P05106, 27-788: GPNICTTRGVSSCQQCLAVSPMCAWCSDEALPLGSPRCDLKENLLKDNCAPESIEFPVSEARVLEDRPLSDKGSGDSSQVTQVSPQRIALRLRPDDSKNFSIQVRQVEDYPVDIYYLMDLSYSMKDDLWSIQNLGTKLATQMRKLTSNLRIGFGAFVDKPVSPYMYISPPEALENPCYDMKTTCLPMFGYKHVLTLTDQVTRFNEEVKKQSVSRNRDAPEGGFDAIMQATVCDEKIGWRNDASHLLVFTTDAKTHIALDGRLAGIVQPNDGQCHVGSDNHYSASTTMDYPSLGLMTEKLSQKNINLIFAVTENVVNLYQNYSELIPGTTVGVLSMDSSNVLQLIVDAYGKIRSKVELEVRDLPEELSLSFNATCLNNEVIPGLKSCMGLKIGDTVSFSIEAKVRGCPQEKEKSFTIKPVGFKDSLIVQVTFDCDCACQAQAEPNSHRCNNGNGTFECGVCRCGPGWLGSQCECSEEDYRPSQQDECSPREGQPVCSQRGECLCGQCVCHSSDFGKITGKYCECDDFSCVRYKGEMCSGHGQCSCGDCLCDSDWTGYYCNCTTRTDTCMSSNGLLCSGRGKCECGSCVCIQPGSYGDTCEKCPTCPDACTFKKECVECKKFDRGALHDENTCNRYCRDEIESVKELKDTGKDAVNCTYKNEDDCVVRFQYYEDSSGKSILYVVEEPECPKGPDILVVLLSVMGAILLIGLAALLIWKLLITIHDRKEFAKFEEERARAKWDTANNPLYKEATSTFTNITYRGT
UniProt P08514, 32-887 limits assumed: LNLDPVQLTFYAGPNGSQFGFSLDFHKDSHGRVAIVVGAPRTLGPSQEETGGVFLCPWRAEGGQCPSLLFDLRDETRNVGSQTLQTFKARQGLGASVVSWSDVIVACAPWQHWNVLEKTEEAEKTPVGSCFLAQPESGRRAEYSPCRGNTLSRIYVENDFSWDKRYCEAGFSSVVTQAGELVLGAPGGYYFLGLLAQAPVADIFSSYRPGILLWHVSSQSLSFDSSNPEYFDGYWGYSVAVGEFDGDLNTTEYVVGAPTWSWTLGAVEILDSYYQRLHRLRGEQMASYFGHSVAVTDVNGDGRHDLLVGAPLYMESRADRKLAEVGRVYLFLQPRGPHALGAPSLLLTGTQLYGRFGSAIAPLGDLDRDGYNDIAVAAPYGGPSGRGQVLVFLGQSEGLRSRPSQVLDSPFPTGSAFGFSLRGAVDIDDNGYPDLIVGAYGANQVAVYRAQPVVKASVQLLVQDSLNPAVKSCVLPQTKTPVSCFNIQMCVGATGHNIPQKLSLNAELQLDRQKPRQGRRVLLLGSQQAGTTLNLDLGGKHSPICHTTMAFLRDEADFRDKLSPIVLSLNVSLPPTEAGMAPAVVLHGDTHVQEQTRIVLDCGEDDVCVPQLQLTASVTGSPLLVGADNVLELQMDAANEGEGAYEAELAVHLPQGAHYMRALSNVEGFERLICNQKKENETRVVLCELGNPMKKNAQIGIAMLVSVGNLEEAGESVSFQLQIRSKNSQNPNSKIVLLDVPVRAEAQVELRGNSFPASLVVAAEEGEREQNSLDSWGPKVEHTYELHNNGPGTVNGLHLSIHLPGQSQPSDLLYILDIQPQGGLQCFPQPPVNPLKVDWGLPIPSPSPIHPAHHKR
UniProt P08514, 891-1039 partner limits assumed: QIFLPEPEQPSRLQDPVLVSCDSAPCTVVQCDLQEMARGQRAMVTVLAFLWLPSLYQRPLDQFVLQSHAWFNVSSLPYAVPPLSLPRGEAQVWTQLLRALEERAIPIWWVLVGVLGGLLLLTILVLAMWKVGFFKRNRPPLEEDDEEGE
UniProt P06756, 891-1048 partner limits assumed: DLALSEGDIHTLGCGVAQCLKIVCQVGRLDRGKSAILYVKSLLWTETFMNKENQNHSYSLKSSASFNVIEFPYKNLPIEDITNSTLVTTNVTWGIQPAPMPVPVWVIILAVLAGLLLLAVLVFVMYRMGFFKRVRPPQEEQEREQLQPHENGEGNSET
UniProt P06756, 31-889 limits assumed: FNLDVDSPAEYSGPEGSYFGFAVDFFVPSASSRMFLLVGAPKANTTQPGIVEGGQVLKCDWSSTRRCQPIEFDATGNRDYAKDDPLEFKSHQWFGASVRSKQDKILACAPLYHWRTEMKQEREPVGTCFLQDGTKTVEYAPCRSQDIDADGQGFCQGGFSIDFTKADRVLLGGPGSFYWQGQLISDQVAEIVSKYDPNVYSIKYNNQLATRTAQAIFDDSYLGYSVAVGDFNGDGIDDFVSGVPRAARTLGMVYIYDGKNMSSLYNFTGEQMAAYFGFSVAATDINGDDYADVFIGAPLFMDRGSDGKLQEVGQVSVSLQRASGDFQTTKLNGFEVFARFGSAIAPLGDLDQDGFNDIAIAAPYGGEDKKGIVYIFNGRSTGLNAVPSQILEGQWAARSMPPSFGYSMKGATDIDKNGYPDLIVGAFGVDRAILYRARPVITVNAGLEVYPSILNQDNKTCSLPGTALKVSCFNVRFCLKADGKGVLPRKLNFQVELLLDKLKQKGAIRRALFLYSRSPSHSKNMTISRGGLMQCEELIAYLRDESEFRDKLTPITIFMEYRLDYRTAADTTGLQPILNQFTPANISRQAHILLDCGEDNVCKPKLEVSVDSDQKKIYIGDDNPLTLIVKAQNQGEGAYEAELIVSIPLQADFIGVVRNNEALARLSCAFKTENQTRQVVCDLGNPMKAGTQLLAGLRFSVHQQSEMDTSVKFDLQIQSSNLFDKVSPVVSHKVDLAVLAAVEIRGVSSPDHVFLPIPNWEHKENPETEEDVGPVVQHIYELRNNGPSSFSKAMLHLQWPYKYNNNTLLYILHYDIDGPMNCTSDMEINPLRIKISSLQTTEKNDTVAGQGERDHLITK

One experiment addresses T1, αIIbβ3 integrin (Homo sapiens, UniProt P05106+P08514).
T1 construct: Human Platelets: Platelet-enriched plasma was obtained commercially from a donor pool; from tissue; host or cells: human platelet-rich plasma from a commercial donor pool
The experiment in a line: ADP-Induced Platelet Aggregation. Particulars: reference compounds, Table VI; ADP 20 uM, human platelets; read-out: IC50 (95% Confidence Interval). Format: cell-based. The method, then: Measurement of the Effect of Compounds on ADP-Induced Platelet Aggregation
Measuring the effect of compounds on ADP-induced platelet aggregation mediated by a fibrinogen-αIIbβ3 integrin interaction.
Human Platelets: Platelet-enriched plasma was obtained commercially from a donor pool. The plasma was tested prior to shipment and found to be negative for HIV, HCV and Hepatitis B. Platelet-rich plasma (PRP) was obtained by diluting plasma to an approximate final concentration of 3×10(6) platelets per mL in platelet poor plasma (PPP). PPP was the supernatant of a lowspeed centrifugation of plasma.
Adenosine diphosphate (ADP): ADP was obtained commercially and diluted to 1 mM (stock solution) in distilled, deionized water (ddH2O).
Incubation: PRP and PPP were prewarmed in a water bath at 37° C. […] PRP plus sample compound in a final volume of 500 uL was added to a pre-warmed cuvette in a ChronoLog aggregometer. […]
Aggregation: To begin the test, ADP was added yielding a final concentration of 20 uM to both samples (plus and minus sample compound). Light transmittance was monitored continuously and compared to the reference cuvette. After five minutes, the test was terminated and the slope and maximal amplitude of the resulting aggregation plot was calculated by the aggregometer. […]

A further experiment addresses T2, αVβ3 integrin (Homo sapiens, UniProt P05106+P06756).
T2 construct: αVβ3-expressing cell lines are maintained by standard tissue culture techniques; endogenous in cells; host or cells: αVβ3-expressing cell lines
The experiment in a line: Osteopontin-αVβ3 Cell Attachment Test Procedure. Format: cell-based. Particulars: reference peptides; SK-MEL-24 human malignant melanoma cell line; read-out: IC50 (95% Confidence Interval). The protocol: Osteopontin-αVβ3 Cell Attachment Test Procedure
Measuring the effect of compounds on the RGD-dependent attachment of cells to osteopontin mediated by the αVβ3 integrin.
Following incubation the wells were aspirated and washed once with D-PBS; plates can either be used immediately or stored for up to 1 week at 4° C. Prior to assay, the wells were blocked with 1% bovine serum albumin (BSA) in cell suspension media for 1 hour at 37° C. Following the blocking period, wells were aspirated and washed once with D-PBS.
αVβ3-expressing cell lines are maintained by standard tissue culture techniques. […] The cells were pelleted by low-speed centrifugation and washed three times with 0.5 mg/mL trypsin inhibitor in D-PBS (Sigma). The final cell pellet was resuspended in cell suspension media at a concentration of 10^6 cells/mL.
Incubation: 100 μL of diluted test compound was added to osteopontin-coated wells (in triplicate) followed by 100 μL of cell suspension; background cell attachment was determined in uncoated wells. […]
Cell Number Detection: The number of cells attached was determined by an MTT dye conversion assay (Promega) according to the manufacturer's instructions. […]
The individual well optical density was expressed as a percentage of the maximal attachment (% Max) wells minus background attachment, and reported as the mean ±standard deviation.

In experiment [1] the target is T3, Vitronectin Receptor (αVβ3) (Homo sapiens, UniProt P05106+P06756).
T3 construct: expressed in transfected cells; host or cells: 512P5 cells (plasma membrane preparation)
The experiment in a line: Vitronectin Receptor (αVβ3) Binding Test Procedure. Particulars: reference RGD peptides; 125I-Echistatin 50 pM.

As a reminder, the IC50 is the concentration that inhibits the measured activity by half. Take `CNCC(=O)N[C@@H](CCCNC(=N)N)C(=O)NCC(=O)N[C@@H](CC(=O)O)C(=O)N[C@@H](CO)C(=O)N1CCC[C@H]1C(=O)O` [n-Me-GRGDSP, reference compound]: the IC50 on αIIbβ3 integrin stood at 208 µM; on αVβ3 integrin, 4 µM.

Regarding `NCC(=O)N[C@@H](CCCN=C(N)N)C(=O)NCC(=O)N[C@@H](CC(=O)O)C(=O)N[C@@H](Cc1ccccc1)C(=O)O` [GRGDF, reference compound], the IC50 at αIIbβ3 integrin worked out at 53.2 µM.

Compound `N=C(N)NCCC[C@H](NC(=O)CN)C(=O)NCC(=O)N[C@@H](CC(=O)O)C(=O)N[C@@H](CO)C(=O)O` [GRGDS, reference compound] showed an IC50 in experiment [1] of 0.751 µM.
